Test results published in ChEMBL document CHEMBL1938230, “6-Position optimization of tricyclic 4-quinolone-based inhibitors of glycogen synthase kinase-3β: discovery of nitrile derivatives with picomolar potency” (Bioorg Med Chem Lett, 2012).

Test system: MAP4K2 (germinal center kinase) (Homo sapiens)
Experiment: Inhibition of human GCK in HL-60 cells lysate assessed as reduction of labeling of acyl-phosphate ATP probe at 100 nM

Structure (SMILES) | inhibition [%]
C[C@H]1COc2c(NCCCn3cccn3)c(F)c(N)c3c(=O)c(C(=O)O)cn1c23 | < 35
C[C@H]1COc2c(NCCCc3ccccn3)c(F)c(N)c3c(=O)c(C#N)cn1c23 | < 35
